Values quoted from earlier work as cited in publication PMC8908504, “Modifications of the Triaminoaryl Metabophore of Flupirtine and Retigabine Aimed at Avoiding Quinone Diimine Formation” (ACS Omega, 2022).

System: TAMH cells
Settings: MTT assay, 24 h exposure; cited from earlier work

## CCOC(=O)Nc1ccc(NCc2ccc(F)cc2)cc1N [compound 2, retigabine]
  LD25: >400 ^f μM

Marks after values point to notes of the source that are not given here.
